≈ marks a conversion by molar mass, not a printed value. Read-outs that look alike come from different tables or passages of the source.
Assays:
[1] = test system: VanA VRE E. faecalis BM 4166 and E. faecium ATCC BAA-2317; test: microdilution antimicrobial assay with added LTA or other additives; format: cell-based; settings: 100 μg/mL LTA
[2] = test system: VanA VRE E. faecalis BM 4166
[3] = test system: VanB E. faecalis ATCC 51299; test: standard microdilution antimicrobial assay; format: cell-based
[4] = test system: Sensitive S. aureus ATCC 25923; test: standard microdilution antimicrobial assay; format: cell-based
[5] = test system: VanA VRE E. faecium ATCC BAA-2317; format: cell-based
[6] = test system: VanA VRE E. faecalis BM 4166 and E. faecium ATCC BAA-2317; test: bacteria cell membrane permeability assay; settings: 10 μM added at 5 min
[7] = test system: MRSA S. aureus ATCC 43300; test: standard microdilution antimicrobial assay; format: cell-based

CN[C@H](CC(C)C)C(=O)N[C@H]1C(=O)N[C@@H](CC(N)=O)C(=O)N[C@H]2C(=O)N[C@H]3C(=O)N[C@H](C(=O)N[C@H](C(=O)NCc4ccc(NC(=N)N)cc4)c4cc(O)cc(O)c4-c4cc3ccc4O)[C@H](O)c3ccc(c(Cl)c3)Oc3cc2cc(c3OC2OC(CO)C(O)[C@H](O)C2O[C@H]2CC(C)(NCc3ccc(-c4ccc(Cl)cc4)cc3)[C@H](O)[C@H](C)O2)Oc2ccc(cc2Cl)[C@H]1O (stereo partly drawn) [GBn-CBP-vancomycin (19)]
decrease of antimicrobial activity with added LTA [1]: 8 fold | MIC ([2]; BM 4166, +LTA 100 μg/mL): 5 µg/mL (≈ 2.78 µM) | MIC ([2]; BM 4166, −LTA): 0.6 µg/mL (≈ 0.334 µM) | MIC [3]: 0.04 µg/mL (≈ 0.0223 µM) | MIC [4]: 0.04 µg/mL (≈ 0.0223 µM) | MIC ([5]; ATCC BAA-2317, +LTA 100 μg/mL): 2.5 µg/mL (≈ 1.39 µM) | MIC ([5]; ATCC BAA-2317, −LTA): 0.3 µg/mL (≈ 0.167 µM) | induced cell membrane permeabilization, in words [6]: strong membrane permeabilization | MIC [7]: 0.02 µg/mL (≈ 0.0111 µM)

From article PMC7429263 (ACS infectious diseases, 2020)
